Only a part is listed here, and it is no random draw. The source made the active and inactive calls.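 How the source made its calls: active means compounds whose plate-normalised and pattern-corrected inhibition of the luciferase reporter signal at the single screening dose is 50% or more; inactive means the rest.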
Test: TROY pathway blockers in reporter cells – Q293 LMP1-TROYcd cells, NF-kB luciferase, uHTS, primary screen (AID 1347056)
Details: 4 h, at 10 µM, active compounds read high
With CCC(=O)N(c1ccccc1)C1(COC)CCN(CCc2cccs2)CC1 the inhibition was inactive: -0.89%.
For CCC(=O)N(c1ccccc1)C1(COC)CCN(CCn2nnn(CC)c2=O)CC1, the inhibition was inactive: 20.5%.

Source: PubChem BioAssay AID1347056 (Sanford-Burnham Center for Chemical Genomics, 2019)
